# scFv variants of Ab-14 (light chain) against a SARS-CoV-2 spike peptide

Values reported by Li et al. 2023, doi:10.1038/s41467-023-39022-2 (FLAb copy).

All variants were tested on one target, the spike HR2 peptide PDVDLGDISGINAS (SARS-CoV-2).

Parent: Ab-14, a human scFv built as VH, a 15-residue (Gly4Ser)3 linker, VL. Only the CDRs of the light chain vary.
VH: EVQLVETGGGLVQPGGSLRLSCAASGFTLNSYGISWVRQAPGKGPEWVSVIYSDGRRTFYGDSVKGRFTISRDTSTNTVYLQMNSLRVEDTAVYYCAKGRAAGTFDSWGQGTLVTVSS
VL: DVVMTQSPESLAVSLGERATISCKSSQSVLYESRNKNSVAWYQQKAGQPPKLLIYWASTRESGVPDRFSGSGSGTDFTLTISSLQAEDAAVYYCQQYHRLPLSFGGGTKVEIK

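The parent was found by panning a naive human phage display library on the peptide. Designed CDR sequences, proposed from the first random library and measured here. Several design methods are mixed in this list. AlphaSeq pools MATa yeast showing the antibodies with MATalpha yeast showing the peptide. Pairs that bind mate more often; barcode pairs of the diploids are counted by sequencing. Each replicate has its own calibration line, from reference interactions of the BCL2 family. Each pool was mated in six replicate cultures.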

Variants are written as CDR1, CDR2 and CDR3 of the light chain (limits as in the source). Parent: KSSQSVLYESRNKNSVA, WASTRES, QQYHRLPLS.
Scale: log10 of Kd in nM, estimated from mating counts; low values are strong binders.
"n.d." means that the variant was in the library but no mating with the target was seen in that replicate; the authors take this as a sign of poor binding, and no number exists.
The parent sequence was in this pool as ten entries: three were never detected, three once, and four in most replicates, with averages from 0.34 to 2.37.
In the paper, a design with two or fewer of six values counts as a poor binder.
A sequence measured in both rounds can read differently, since the two assays cover different ranges.
Empty control strains, which show no peptide, gave a signal in 4% of pairings with all light chain designs; the median was 2.64 and 95% of these signals were weaker than 1.59. No background was subtracted.

CDR-L1,CDR-L2,CDR-L3,"replicates, log10 nM"
HISQSYGMTSRNKNSVA,ENSTRED,QQYDRLPLS,3.06 1.71 4.77 4.95 3.58 2.63
KLSQSVLTESRNKNSVA,WASTRES,QQYHRLPLS,0.35 0.34 0.24 0.22 0.28 0.29
SVTRYTDENGLKMSSVA,GAANRMT,QQYHRLPLT,0.70 0.86 0.53 0.54 0.66 0.73
NMEGVEFEMAMHGNSVA,GVDLREA,QQYFRLPLH,1.01 1.12 0.82 0.95 1.35 1.35
KSLQSVLYESRNKFSVS,HASTVED,AQYHRLPLS,n.d. n.d. n.d. n.d. n.d. n.d.
SLGLATMLEEYKRNSVA,NNSTRES,QQYDRLPLS,n.d. 3.09 n.d. n.d. n.d. n.d.
KYSTSDLYESTNKNSVA,WASTRES,QQYHRLPLS,1.24 1.10 0.70 0.85 0.94 1.07
KMSGEDMMLSRNWNSVA,QASTREQ,QQYHRLPLS,0.58 0.49 0.97 0.32 0.21 1.13
KHEEGWLYESRNKNSVA,EGSTRES,QQYHRLPLS,-0.03 -0.04 -0.28 -0.13 -0.33 0.03
KSSQSVLSESRNENSVA,WASTRNR,QQYHRLPLF,1.83 n.d. n.d. 1.31 2.51 2.56
KISQMVRVGSTHVNSIA,EEVTRAK,QQYHRLPLA,0.85 0.99 1.04 0.95 1.20 0.90
MISQIYNMGQFAINSVA,QASVRNA,QQYDRLPLM,n.d. n.d. n.d. 2.11 n.d. n.d.
HITYGMMVAGRHHSSIA,QAEERAK,QQYDRLPLS,1.58 0.57 0.86 1.08 0.62 0.93
TLSQMSGVEAVKHNNVA,ENSTREN,QQYDRLPLA,n.d. n.d. n.d. n.d. n.d. 2.65
IVSQLMLWGYHAKNSIA,EAELRTN,QQYDRLPLF,n.d. 0.99 n.d. 0.80 n.d. n.d.
KLSQTHGMESVNRNSVA,ELVTRMH,QQYNRLPLS,0.60 0.78 0.65 0.62 0.79 1.25
KLSQSWLYESRNKNSVA,NASTRMV,QQYHRLPLS,0.27 0.01 0.11 0.01 -0.10 0.06
TISQLMNMGQFAINSVA,QAEIRNA,QQYDRLPLI,1.97 1.58 1.48 1.70 2.11 1.61
HLELEYMQMMKDHNSIA,DTEHKTD,QQYFRLPIS,0.62 0.26 0.51 0.32 0.00 0.71
TISQMWFIEEKNRNNVA,EMTTREN,QDYDRLPLS,0.88 1.11 0.73 0.58 0.84 0.67
KLAMHMEMNARTNHHIA,EANLKPS,QQYNRLPFS,0.67 0.43 0.95 0.55 0.81 0.61
KVSMLDDGGSRNKNSVA,HASTRES,QQYHRLPLS,0.91 0.45 0.46 0.26 0.00 0.35
KLEQSDLYESRNKNAVA,NASQRES,QQYHRLPLS,0.28 0.04 0.00 -0.36 -0.08 0.09
AVDFSHLGESRNKNSVA,EASTREQ,QQYHRLPLS,0.07 -0.01 -0.05 -0.06 -0.18 0.15
KLSMVHGHLSMAKNNVA,EMVTREK,QQYNRLPLS,0.44 0.50 0.50 0.39 0.48 0.78
KSSQSGLYESRNKNSVA,TASTRES,QQKHRLPLS,0.64 0.86 0.39 0.76 0.81 1.29
QLYEMSYELSGKTHSVA,DNSTRGD,QQYFRLPLQ,0.66 0.40 0.64 1.16 0.85 0.78
VLMGWGADQIQHANSVA,DADEVDM,QQYAHLPLS,1.64 1.62 2.84 4.19 1.24 2.08
KVDSAVLYEQRNKNSVA,DASQRES,QQYHRLPLS,-0.18 -0.56 -0.27 -0.46 -0.47 -0.41
TLTQSVGMLSHNKNSVA,DLSTRGS,QQYHRLPLS,0.34 0.12 0.00 -0.08 -0.01 0.20
QISLNGWDGEKYEYAVA,EGTKKDA,QQYSRLPLS,0.93 1.06 1.59 1.52 1.03 1.33
KSSQSVLYESLLFNSVA,WASTRES,QQYHRLPLS,n.d. n.d. n.d. n.d. n.d. 2.51
KLQQADLYESRNANSVA,QASERES,QCYHRLPLS,0.64 0.33 0.66 0.75 0.71 0.61
NISHFMDVTAKHNNNVA,EMTMREM,QQYHHLPLS,1.18 1.41 0.67 0.48 1.15 1.11
HVSPSVLYESRNKNSVA,NASTRES,QQYHRLPLQ,-0.07 -0.21 -0.13 -0.37 -0.29 -0.16
NLSDGDMYHNATRSAVA,NTSMRDF,QQYNRLPLD,1.44 1.77 1.94 1.48 2.23 n.d.
KISQSVLYESRNKNSVA,AASTRES,QPYHRLPLS,1.40 0.72 1.12 1.33 1.23 1.27
KVSQQMLYESRNANSVA,NASQREE,QQYHRLPLS,0.04 -0.08 -0.39 -0.35 -0.27 -0.16
KLLQSVNYGSRALNSVA,QMETRED,QQYNRLPLS,1.75 n.d. n.d. 1.70 1.75 1.32
KISGSHLYESRNWNAVA,EASTRPS,QQYHRLPLS,0.18 0.11 -0.07 -0.02 -0.01 0.15
KISMLHNQTFNISNNVA,EMVTREK,QQYNRLPLS,2.58 n.d. n.d. 2.33 3.50 2.57
KLSQSHLYESRNKNSVA,EASTRCS,QQYHRLPLS,0.01 0.24 0.12 0.27 0.07 0.26
KLSMVTGHMSVSKNNVA,EMETRMN,QQYDRLPLS,0.21 0.01 0.12 0.17 0.16 0.10
KMSQSWLYESRNKNSVA,GASTREN,QQYHRLPLS,-0.20 -0.09 -0.35 -0.50 -0.30 -0.35
KISQSINFMSGNKNAIA,QMEMREE,QQYHRLPLS,1.80 0.66 1.03 0.22 0.32 0.63
TLSDLMHMESRNVNSVA,DLVKRES,QQYHRLPLS,0.22 -0.02 -0.10 -0.07 -0.01 -0.04
KVSPSELYEDRNWNSVA,QASQRCS,QQYHRLPLS,0.16 0.40 0.26 0.13 0.08 0.23
KFSQSVLYESYNKNSVA,NASTREL,QQYHRLPLS,0.30 0.67 0.29 0.29 0.55 0.76
MMSQSVLYEMRNKNSVA,KASTREY,QQYHRLPLS,1.18 1.14 1.14 0.43 1.84 1.09
KLSQSDLYESRNKNSVA,SASTRES,QQYHRLPLS,-0.07 -0.16 -0.26 -0.34 -0.36 0.05

Picked from the list: the 7 lowest averages where every replicate gave a value.

{"CDR-L1": "KVDSAVLYEQRNKNSVA", "CDR-L2": "DASQRES", "CDR-L3": "QQYHRLPLS", "replicates, log10 nM": "-0.18 -0.56 -0.27 -0.46 -0.47 -0.41"}
{"CDR-L1": "KMSQSWLYESRNKNSVA", "CDR-L2": "GASTREN", "CDR-L3": "QQYHRLPLS", "replicates, log10 nM": "-0.20 -0.09 -0.35 -0.50 -0.30 -0.35"}
{"CDR-L1": "HVSPSVLYESRNKNSVA", "CDR-L2": "NASTRES", "CDR-L3": "QQYHRLPLQ", "replicates, log10 nM": "-0.07 -0.21 -0.13 -0.37 -0.29 -0.16"}
{"CDR-L1": "KVSQQMLYESRNANSVA", "CDR-L2": "NASQREE", "CDR-L3": "QQYHRLPLS", "replicates, log10 nM": "0.04 -0.08 -0.39 -0.35 -0.27 -0.16"}
{"CDR-L1": "KLSQSDLYESRNKNSVA", "CDR-L2": "SASTRES", "CDR-L3": "QQYHRLPLS", "replicates, log10 nM": "-0.07 -0.16 -0.26 -0.34 -0.36 0.05"}
{"CDR-L1": "KHEEGWLYESRNKNSVA", "CDR-L2": "EGSTRES", "CDR-L3": "QQYHRLPLS", "replicates, log10 nM": "-0.03 -0.04 -0.28 -0.13 -0.33 0.03"}
{"CDR-L1": "AVDFSHLGESRNKNSVA", "CDR-L2": "EASTREQ", "CDR-L3": "QQYHRLPLS", "replicates, log10 nM": "0.07 -0.01 -0.05 -0.06 -0.18 0.15"}